Measured values: article PMC6282106, “Commercial drugs containing flavonoids are active in mice with malaria and in vitro against chloroquine-resistant Plasmodium falciparum” (Memórias do Instituto Oswaldo Cruz, 2018)

Tested on: BGM cell line
Details: 24 h, MTT, mean of 3-5 experiments

Structure (SMILES): [Se] [Selenium]
- MDL50 (minimum lethal dose for 50% of cells), mean ± SD: ≥ 1000 µg/mL
